Results as given in publication doi:10.1101/2024.04.25.591105v1 (biorxiv, 2024).

Protein sequences, listed by entry. Tags and fused reporters are not part of them. Lines headed by an entry give the natural chain unless they say otherwise; changes in a name come on top.
UniProt P03372: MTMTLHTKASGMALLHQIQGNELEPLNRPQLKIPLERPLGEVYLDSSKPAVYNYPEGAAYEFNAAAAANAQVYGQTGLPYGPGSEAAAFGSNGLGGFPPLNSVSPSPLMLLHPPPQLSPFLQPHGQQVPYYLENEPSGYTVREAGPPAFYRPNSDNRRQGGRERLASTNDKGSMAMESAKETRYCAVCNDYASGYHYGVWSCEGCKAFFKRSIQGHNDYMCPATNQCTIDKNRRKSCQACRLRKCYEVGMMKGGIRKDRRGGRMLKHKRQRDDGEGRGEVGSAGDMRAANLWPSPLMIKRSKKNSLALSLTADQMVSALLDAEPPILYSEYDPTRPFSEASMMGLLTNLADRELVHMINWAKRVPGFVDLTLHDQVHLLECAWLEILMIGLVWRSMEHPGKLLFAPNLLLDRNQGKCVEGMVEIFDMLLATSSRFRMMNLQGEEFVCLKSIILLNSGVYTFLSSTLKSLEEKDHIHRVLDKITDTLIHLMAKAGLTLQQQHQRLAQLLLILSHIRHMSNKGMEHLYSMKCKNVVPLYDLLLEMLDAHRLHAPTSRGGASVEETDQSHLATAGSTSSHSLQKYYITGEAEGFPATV
UniProt P31947: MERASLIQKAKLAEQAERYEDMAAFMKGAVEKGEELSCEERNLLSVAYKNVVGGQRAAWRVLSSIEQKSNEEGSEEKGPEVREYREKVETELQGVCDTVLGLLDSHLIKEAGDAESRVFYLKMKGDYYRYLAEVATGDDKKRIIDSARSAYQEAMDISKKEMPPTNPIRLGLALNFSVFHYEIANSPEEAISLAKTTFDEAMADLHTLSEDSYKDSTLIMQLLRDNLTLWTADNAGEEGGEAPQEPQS

Molecular target: ERα/14-3-3σ complex (14-3-3σ FL + FAM-labeled C-terminal phospho-ERα peptide) (Homo sapiens, UniProt P03372+P31947)
Test: fluorescence anisotropy, compound titration
Type: binding

C=CC(C)(C)OC[C@H]1O[C@H](O[C@@H]2C3=C([C@H](C)CNC(C)=O)C[C@H](O)[C@]3(C)/C=C3\[C@@H](COC)CC[C@H]3[C@@H](C)[C@H]2O)[C@H](O)[C@@H](O)[C@@H]1O [FC-NAc]
EC50: 15 nM
